Tests used:
[1] = biological target: HDAC 4 human recombinant enzyme (Homo sapiens, UniProt P56524); test: HDAC 4 assay (BPS Bioscience kit)
[2] = biological target: HDAC 5 (Homo sapiens, UniProt Q9UQL6); test: HDAC 5 assay (BPS Bioscience kit)
[3] = biological target: T1, HDAC 8 (Homo sapiens, UniProt Q9BY41); test: HDAC 8 assay (BPS Bioscience kit)
T1 sequence (Q9BY41 1-377): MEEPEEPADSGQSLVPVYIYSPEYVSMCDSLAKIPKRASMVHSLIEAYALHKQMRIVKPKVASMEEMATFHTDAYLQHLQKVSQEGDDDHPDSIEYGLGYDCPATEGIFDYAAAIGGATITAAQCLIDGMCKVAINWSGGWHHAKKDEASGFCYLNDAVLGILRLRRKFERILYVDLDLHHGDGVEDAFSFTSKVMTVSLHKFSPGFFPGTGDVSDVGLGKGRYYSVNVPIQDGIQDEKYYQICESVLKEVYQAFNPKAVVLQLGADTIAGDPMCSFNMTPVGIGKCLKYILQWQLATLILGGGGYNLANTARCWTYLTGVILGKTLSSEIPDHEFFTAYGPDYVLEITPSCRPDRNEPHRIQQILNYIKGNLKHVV

Chains of the proteins cited; added tags and fusions are not shown. Lines headed by an entry give the natural chain unless they say otherwise; changes in a name come on top.
UniProt P56524: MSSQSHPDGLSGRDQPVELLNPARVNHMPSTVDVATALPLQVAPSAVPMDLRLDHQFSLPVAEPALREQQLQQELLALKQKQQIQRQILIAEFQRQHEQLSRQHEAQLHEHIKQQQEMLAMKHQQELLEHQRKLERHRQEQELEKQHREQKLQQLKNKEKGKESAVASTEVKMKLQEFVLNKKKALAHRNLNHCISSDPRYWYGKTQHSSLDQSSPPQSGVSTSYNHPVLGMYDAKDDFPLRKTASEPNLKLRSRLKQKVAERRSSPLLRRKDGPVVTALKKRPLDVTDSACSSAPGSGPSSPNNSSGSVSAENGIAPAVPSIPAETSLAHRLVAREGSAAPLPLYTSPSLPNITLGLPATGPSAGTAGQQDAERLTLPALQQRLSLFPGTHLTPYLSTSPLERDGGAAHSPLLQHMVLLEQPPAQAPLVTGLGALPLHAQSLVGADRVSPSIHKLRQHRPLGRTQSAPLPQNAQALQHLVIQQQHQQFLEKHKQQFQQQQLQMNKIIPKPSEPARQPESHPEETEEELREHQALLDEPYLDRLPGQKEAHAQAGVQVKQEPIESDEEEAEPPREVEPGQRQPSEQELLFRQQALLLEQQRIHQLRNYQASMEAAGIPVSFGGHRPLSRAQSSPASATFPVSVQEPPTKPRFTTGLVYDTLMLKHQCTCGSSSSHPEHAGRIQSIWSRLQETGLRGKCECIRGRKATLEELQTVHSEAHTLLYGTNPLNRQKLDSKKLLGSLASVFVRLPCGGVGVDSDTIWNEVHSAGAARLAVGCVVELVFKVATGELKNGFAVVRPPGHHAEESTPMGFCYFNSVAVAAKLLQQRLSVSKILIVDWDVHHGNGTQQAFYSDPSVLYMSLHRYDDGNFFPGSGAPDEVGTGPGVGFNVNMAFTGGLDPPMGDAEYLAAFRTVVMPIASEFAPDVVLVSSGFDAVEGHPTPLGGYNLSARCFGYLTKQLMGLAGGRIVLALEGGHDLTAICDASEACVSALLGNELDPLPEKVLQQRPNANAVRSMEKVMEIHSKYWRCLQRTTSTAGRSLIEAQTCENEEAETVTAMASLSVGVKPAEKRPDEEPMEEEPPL
UniProt Q9UQL6: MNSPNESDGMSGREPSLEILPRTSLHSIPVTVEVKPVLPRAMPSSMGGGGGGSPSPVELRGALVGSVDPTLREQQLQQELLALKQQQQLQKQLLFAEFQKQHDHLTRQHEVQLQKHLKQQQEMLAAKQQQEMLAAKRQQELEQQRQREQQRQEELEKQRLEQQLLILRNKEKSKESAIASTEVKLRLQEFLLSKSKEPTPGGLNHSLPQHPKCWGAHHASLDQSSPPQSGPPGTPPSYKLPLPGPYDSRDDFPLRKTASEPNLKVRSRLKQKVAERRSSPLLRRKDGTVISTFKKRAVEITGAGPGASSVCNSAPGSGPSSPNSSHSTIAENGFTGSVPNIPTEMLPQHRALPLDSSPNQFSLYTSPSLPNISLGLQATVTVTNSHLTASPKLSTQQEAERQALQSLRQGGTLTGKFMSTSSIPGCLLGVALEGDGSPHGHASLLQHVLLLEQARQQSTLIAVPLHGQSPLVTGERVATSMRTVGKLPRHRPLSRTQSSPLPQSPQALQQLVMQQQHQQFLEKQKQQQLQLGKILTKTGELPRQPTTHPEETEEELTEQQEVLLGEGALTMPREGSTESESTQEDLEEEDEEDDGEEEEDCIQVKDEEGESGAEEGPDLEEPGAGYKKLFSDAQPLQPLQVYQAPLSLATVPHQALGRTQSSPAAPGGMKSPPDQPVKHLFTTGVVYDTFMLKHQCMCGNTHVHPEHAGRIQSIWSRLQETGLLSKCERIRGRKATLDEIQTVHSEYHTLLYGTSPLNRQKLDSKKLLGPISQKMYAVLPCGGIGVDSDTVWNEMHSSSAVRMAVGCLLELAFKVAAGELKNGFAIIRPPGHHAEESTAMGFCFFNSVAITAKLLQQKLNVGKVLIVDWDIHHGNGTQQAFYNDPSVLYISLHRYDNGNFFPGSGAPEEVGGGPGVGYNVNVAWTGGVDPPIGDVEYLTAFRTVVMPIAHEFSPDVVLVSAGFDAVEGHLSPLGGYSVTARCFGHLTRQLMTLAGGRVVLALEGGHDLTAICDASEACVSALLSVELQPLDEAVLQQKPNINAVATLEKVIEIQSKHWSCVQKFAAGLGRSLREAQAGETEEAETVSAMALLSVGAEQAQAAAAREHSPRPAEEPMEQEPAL

In the case of `CC(/C=C/C(=O)NO)=C\[C@@H](C)C(=O)c1ccc(N(C)C)cc1` [TSA, Trichostatin A], the “Percent Inhibition” value ([1]; HDAC 4, standard at 0.5 uM) is reported as “NIA”, the “Percent Inhibition” value ([1]; HDAC 4, standard at 1 uM) is reported as 17% and the “Percent Inhibition” value ([1]; HDAC 4, standard at 3 uM) is reported as 35%. For the same molecule, the “Percent Inhibition” value ([1]; HDAC 4, standard at 7 uM) was 67%, the “Percent Inhibition” value ([1]; HDAC 4, standard at 10 uM) was 77% and the “Percent Inhibition” value ([2]; HDAC 5, standard at 0.2 uM) was “NIA”. The “Percent Inhibition” value ([2]; HDAC 5, standard at 0.5 uM) was 20%, the “Percent Inhibition” value ([2]; HDAC 5, standard at 1 uM) was 41% and the “Percent Inhibition” value ([2]; HDAC 5, standard at 2 uM) was 63%. The “Percent Inhibition” value ([2]; HDAC 5, standard at 5 uM) was 73%, the “Percent Inhibition” value ([2]; HDAC 5, standard at 10 uM) was 85% and the “Percent Inhibition” value ([3]; 0.01 µM) was 51%. The “Percent Inhibition” value ([3]; 0.1 µM) was 67%, the “Percent Inhibition” value ([3]; 1 µM) was 80% and the “Percent Inhibition” value ([3]; 5 µM) was 87%. The “Percent Inhibition” value ([3]; 10 µM) was 97%.

— patent publication US12600705B2, “Heat shock protein modulators and anti-Huntington disease therapeutic agents” (UNIVERSITY OF PITTSBURGH-OF THE COMMONWEALTH SYSTEM OF …, priority 2020, dated 2026)
